# Experimental data reported in patent US9266814B2, “Use of nitrooxy organic molecules in feed for reducing methane emission in ruminants, and/or to improve ruminant performance” (DSM IP ASSETS B.V., priority 2010, dated 2016).
# Tested on: methane production of dairy cows
# Assay: In vivo effect in dairy cows (indirect calorimeters)
# Design: species or system Holstein X Friesian dairy cows
smiles,measurement,setting,value
"O=[N+]([O-])OCCCO [Compound 1, 3-Nitrooxypropanol]","methane yield, % of control methane yield",high dose (2500 mg/d),93 % of control
same,"methane yield, % of control methane yield",low dose (500 mg/d),96 % of control
